This passage reports bulk density results from patent US10640487B2, “Solid state forms of Nilotinib salts” (Teva Pharmaceuticals USA, Inc., priority 2016, dated 2020).

For the data set the following is noted: compared to form B of Nilotinib HCl described in WO'870.

Consider Nilotinib hydrochloride L-tartaric acid, for which the bulk density entry is reported as “high bulk density”.
